In PMC11302665:

Assays:
[1] = target: L-cysteine desulfurase IscS (E. coli) (UniProt P0A6B7); assay: native MS; ~8 µM IscS (~4 µM dimeric IscS) titrated with increasing TusA in 250 mM ammonium acetate, pH 8.0; fractional intensities fitted to a sequential binding model (Dynafit)
[2] = target: R220/223/225E triple variant of IscS (E. coli) (UniProt P0A6B7); assay: as above

TusA (from UniProt P0A890 1-81) (natural protein)
stoichiometry N (TusA per IscS dimer) [1]: 2
Kd [2]: 50 µM
stoichiometry N (TusA per IscS dimer) [2]: 2
